Laboratory results from article PMC10245146, “CNS4 causes subtype‐specific changes in agonist efficacy and reversal potential of permeant cations in NMDA receptors” (Pharmacology Research & Perspectives, 2023).

Protein sequences, listed by entry. Tags and fused reporters are not part of them. Residues count along the entry.
UniProt O15399, 28-1336: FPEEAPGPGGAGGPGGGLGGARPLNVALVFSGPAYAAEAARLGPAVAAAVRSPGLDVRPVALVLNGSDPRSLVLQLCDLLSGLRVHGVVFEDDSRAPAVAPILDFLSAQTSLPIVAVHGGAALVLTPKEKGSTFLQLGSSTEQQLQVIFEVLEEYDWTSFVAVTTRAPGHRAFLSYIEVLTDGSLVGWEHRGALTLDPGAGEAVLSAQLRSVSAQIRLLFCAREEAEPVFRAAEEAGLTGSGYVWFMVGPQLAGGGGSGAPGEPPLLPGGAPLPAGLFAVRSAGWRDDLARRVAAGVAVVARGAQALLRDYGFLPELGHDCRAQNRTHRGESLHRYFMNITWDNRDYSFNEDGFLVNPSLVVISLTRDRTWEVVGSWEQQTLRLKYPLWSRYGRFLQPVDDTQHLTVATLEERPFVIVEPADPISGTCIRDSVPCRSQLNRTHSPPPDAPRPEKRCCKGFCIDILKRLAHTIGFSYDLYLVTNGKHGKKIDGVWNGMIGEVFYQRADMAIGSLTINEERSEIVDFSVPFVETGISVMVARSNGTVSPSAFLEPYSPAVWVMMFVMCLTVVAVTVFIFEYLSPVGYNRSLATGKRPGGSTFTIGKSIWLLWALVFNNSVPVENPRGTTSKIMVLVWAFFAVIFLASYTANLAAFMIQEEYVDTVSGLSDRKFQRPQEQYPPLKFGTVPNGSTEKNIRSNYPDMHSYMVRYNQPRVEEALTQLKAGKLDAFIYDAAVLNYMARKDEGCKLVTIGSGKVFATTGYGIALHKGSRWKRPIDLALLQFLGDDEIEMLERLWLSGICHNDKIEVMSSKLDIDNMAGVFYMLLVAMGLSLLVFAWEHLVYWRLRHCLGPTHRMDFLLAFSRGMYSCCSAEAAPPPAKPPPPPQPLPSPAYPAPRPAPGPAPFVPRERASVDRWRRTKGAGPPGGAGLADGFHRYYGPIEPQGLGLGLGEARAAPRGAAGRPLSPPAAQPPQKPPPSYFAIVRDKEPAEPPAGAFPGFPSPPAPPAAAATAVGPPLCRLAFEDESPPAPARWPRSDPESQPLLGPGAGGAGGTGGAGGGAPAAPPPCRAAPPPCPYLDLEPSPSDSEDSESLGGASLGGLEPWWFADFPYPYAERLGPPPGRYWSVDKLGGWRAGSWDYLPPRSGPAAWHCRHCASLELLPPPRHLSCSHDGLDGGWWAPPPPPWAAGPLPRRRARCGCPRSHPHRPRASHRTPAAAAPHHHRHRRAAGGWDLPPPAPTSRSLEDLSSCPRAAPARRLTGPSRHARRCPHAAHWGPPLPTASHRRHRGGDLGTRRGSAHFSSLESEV
UniProt Q12879, 23-1464: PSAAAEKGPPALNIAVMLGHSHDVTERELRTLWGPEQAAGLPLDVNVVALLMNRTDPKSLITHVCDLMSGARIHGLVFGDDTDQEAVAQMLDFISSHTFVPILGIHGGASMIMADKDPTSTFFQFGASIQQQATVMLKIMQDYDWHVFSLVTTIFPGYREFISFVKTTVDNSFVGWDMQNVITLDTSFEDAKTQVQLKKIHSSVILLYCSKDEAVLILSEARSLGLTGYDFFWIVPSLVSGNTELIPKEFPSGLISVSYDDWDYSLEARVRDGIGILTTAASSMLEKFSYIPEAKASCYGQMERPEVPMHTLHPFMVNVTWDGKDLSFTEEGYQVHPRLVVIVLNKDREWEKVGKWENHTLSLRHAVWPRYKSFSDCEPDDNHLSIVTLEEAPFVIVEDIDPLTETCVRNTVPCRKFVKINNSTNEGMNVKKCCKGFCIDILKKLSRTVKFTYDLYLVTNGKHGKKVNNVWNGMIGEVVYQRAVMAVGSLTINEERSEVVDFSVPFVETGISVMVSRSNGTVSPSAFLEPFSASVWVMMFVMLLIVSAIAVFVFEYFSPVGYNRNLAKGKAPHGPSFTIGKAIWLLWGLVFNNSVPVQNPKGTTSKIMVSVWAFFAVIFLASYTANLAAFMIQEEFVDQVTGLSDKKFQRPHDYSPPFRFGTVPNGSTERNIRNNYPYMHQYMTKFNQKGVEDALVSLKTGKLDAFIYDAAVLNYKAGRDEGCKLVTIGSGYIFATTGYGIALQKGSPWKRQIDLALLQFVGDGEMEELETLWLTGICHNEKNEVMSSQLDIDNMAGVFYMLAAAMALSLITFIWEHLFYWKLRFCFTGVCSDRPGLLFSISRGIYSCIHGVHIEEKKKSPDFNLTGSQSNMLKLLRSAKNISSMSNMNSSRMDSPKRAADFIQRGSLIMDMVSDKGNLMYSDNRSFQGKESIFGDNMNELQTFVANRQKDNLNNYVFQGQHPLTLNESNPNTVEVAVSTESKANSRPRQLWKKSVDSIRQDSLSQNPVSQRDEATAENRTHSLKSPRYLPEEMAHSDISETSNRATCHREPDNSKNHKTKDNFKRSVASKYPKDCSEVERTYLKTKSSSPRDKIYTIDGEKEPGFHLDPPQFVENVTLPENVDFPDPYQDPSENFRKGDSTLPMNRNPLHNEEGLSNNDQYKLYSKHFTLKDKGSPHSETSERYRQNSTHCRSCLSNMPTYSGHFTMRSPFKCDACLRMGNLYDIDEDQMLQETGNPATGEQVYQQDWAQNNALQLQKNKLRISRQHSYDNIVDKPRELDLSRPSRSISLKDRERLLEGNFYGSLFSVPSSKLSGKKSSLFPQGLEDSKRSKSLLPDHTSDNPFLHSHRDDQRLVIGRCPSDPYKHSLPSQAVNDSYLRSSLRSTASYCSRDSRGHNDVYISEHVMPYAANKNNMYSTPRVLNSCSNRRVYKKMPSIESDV

Assays:
GluN1/2D NMDA receptors = target: T1, GluN1/2D NMDA receptors (UniProt O15399+P35439); assay: TEVC antagonist block of agonist-induced currents, 1/2D; type: cell-based; settings: read-out: Memantine IC50
T1 construct: host or cells: Xenopus oocytes (cRNA injection)
Procedure: (§1) Electrophysiological responses were measured using a standard two‐microelectrode voltage‐clamp workstation (Warner Instruments model OC‐725C) designed to provide a fast clamp of large cells. The recording buffer contained 116 mM NaCl, 2 mM KCl, 0.3 mM BaCl2, and 5 mM HEPES, pH 7.4. Response magnitude was determined in Xenopus oocytes expressing different NMDA receptor subunits (GluN1/2A, 1/2B, 1/2C, 1/2D, and 1/2A/2B) by the steady plateau response elicited by bath application of different agonist concentrations. […] All data points were obtained from the steady state currents unless stated otherwise. Dose–response relationships were fit to an appropriate curve‐fitting equation using GraphPad Prism‐7. Non‐linear regression was used to calculate EC50, IC50, and fold change or percentage maximal response. Curves were fit using the following equations as performed in the previous studies, [37]: Y=100/1+10^LogEC50−XorY=Bottom+Top−Bottom/1+10^LogEC50−X . Statistical significance was determined at the overall alpha level 0.05, using appropriate statistical methods as described in all figure captions. Technical and biological replicates are explicitly mentioned in each figure legend, as n = X (Y). X represents technical repeats (number of traces) and Y represents biological repeats (number of oocytes or HEK293T cells studied). […]

GluN1/2A NMDA receptors = target: T2, GluN1/2A NMDA receptors (UniProt P35439+Q12879); assay: TEVC antagonist block of agonist-induced currents, 1/2A; type: cell-based; settings: read-out: Memantine IC50
T2 construct: expressed in transfected cells; host or cells: Xenopus oocytes (cRNA injection)
Procedure: as §1

`CC12CC3CC(C)(C1)CC(N)(C3)C2` [Memantine] gave an IC50 (GluN1/2D NMDA receptors; with 30 μM CNS4, n = 9 (7), p = .3645) of 640 ± 150 nM, an IC50 (GluN1/2D NMDA receptors; without CNS4, n = 13(10)) of 500 ± 60 nM and an IC50 (GluN1/2A NMDA receptors; with 30 μM CNS4, n = 10 (8), p = .0407) of 870 ± 90 nM. It also gave an IC50 (GluN1/2A NMDA receptors; without CNS4, n = 11 (10)) of 640 ± 30 nM.

Where two headings read alike, the source gives them in different places.
